How the values were obtained:
human orexin 2 receptor = human orexin 2 receptor (Homo sapiens (Human), UniProt O43614); assay: Human orexin 2 receptor radioligand binding ([3H]-EMPA competition); details: HEK293 stably expressing human orexin 2 receptor; 2 nM [3H]-EMPA; averages of 2-20 runs; read-out: hOX2 Ki
Protocol: The in vitro affinity of the compounds of the invention for the rat/human orexin 1 and human orexin 2 receptors was determined by competitive radioligand binding using [^3H](1-(5-(2-fluoro-phenyl)-2-methyl-thiazol-4-yl)-1-((S)-2-(5-phenyl-(1,3,4)oxadiazol-2-ylmethyl)-pyrrolidin-1-yl)-methanone) (Langmead et al., 2004) and [^3H]EMPA (n-ethyl-2[96-methoxy-pyridin-3-yl)-(toluene-2-sulfonyl)-amino]-N-pyridin-3-ylmethyl acetamide), respectively (Langmead et al., 2004, British Journal of Pharmacology 141:340-346; Malherbe et al., 2004, British Journal of Pharmacology 156:1326-41).
Data are analyzed using pc-Sandy macro and graphed on Graphpad Prism 5. For analysis, each concentration point is averaged from triplicate values and the averaged values are plotted on Graphpad Prism. The IC50 was determined by applying the following equation (GraphPad Prism 5.0, San Diego) for one site competition where X=log (concentration) and Y=specific binding. Top denotes the total [^3H]— (1-(5-(2-fluoro-phenyl)-2-methyl-thiazol-4-yl)-1-((S)-2-(5-phenyl-(1,3,4)oxadiazol-2-ylmethyl)-pyrrolidin-1-yl)-methanone) binding, bottom denotes the nonspecific [^3H]— (1-(5-(2-fluoro-phenyl)-2-methyl-thiazol-4-yl)-1-((S)-2-(5-phenyl-(1,3,4)oxadiazol-2-ylmethyl)-pyrrolidin-1-yl)-methanone) binding. Graphpad Prism calculates Ki value from IC50 and the pre-determined Kd values for [^3H]— (1-(5-(2-fluoro-phenyl)-2-methyl-thiazol-4-yl)-1-((S)-2-(5-phenyl-(1,3,4)oxadiazol-2-ylmethyl)-pyrrolidin-1-yl)-methanone) and [^3H]-EMPA. The Ki for each compound is then uploaded into 3DX. Each run comprises individual compounds in triplicate. The data in Table 1 and Table 2 represent averages from between 2-20 runs
Human Orexin 2 Receptor Radioligand Binding Studies
HEK293 stably expressing human orexin 2 receptor (Genebank accession number NM_001526) were grown to confluency in DMEM (Hyclone, cat # SH30022), 10% FBS, 1× Pen/Strep, 1× NaPyruvate, 10 mM HEPES, 600 μg/ml G418 media on 150 cm^2 tissue culture plates, washed with 5 mM EDTA in PBS (HyClone Dulbecco's Phosphate Buffered Saline 1× with Calcium and Magnesium, Cat # SH30264.01, hereafter referred to simply as PBS) and scraped into 50 ml tubes. After centrifugation (2K×G, 5 min at 4° C.), the supernatant was aspirated and the pellets frozen and stored at −80° C. Cells were resuspended in PBS in the presence of 1 tablet of protease inhibitor cocktail (Roche, Cat. #11836145001) per 50 mL. […] Compounds were solubilized in 100% DMSO (Acros Organics, Cat. #61042-1000) and tested over a range of 7 concentration (from 0.1 nM to 10 μM). The final concentration of DMSO in the reactions is equal to or less than 0.1%. Total and nonspecific binding was determined in the absence and presence of 10 μM almorexant. The total volume of each reaction is 200 μL (20 μL of diluted compounds, 80 μL of [^3H]-EMPA diluted in PBS and 100 μL of the cell suspension). Reactions were run for 60 min at room temperature and terminated by filtration through GF/C filter plates (PerkinElmer, Cat. #6005174) presoaked in 0.3% polyethylenimine using the cell harvester (PerkinElmer Filtermate). The plates were washed 3 times by aspirating 30 ml PBS through the plates. Plates were dried in 55° C. oven for 60 min, scintillation fluid was added, and the radioactivity was counted on a Topcount (Packard).

By UniProt entry, the sequences of proteins in these tests, tags left out.
UniProt O43614, whole entry: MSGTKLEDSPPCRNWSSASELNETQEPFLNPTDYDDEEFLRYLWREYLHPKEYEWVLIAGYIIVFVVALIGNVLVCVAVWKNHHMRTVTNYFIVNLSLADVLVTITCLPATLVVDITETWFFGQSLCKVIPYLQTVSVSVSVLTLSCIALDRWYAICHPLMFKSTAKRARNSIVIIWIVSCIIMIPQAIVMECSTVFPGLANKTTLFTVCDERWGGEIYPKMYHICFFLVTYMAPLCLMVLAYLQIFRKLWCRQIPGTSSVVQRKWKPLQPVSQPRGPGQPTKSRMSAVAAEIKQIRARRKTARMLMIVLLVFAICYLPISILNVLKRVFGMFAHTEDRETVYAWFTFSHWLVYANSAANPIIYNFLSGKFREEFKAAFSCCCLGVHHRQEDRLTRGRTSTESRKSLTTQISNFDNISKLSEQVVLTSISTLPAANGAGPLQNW
UniProt O43613, whole entry: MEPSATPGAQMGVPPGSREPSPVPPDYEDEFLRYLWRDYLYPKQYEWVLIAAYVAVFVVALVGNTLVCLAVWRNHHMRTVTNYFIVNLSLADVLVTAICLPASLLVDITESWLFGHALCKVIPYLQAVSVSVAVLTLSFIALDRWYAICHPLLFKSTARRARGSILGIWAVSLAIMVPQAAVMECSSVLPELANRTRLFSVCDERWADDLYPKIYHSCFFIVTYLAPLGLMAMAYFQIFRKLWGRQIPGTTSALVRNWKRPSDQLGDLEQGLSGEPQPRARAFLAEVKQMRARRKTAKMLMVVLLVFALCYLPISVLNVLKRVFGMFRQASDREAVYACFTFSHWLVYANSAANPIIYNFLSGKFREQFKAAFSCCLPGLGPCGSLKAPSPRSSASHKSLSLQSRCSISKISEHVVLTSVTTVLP

human orexin 1 receptor = human orexin 1 receptor (Homo sapiens (Human), UniProt O43613); assay: Human orexin 1 receptor radioligand binding (competitive); details: CHO cells stably expressing human orexin 1 receptor; 4 nM radioligand; averages of 2-20 runs; read-out: hOX1 Ki
Method in brief: (§1)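 Competition binding used HEK293 cells expressing rat OX1 or CHO cells expressing human OX1, with 4 nM final [3H]-labelled thiazolyl-oxadiazolyl-pyrrolidinyl methanone radioligand in PBS. Compounds were tested at 7 concentrations (0.1 nM–10 μM) for 60 min at room temperature, then filtered; 10 μM almorexant defined nonspecific binding. Ki was derived from the one-site IC50 and the radioligand Kd.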

rat orexin 1 receptor = rat orexin 1 receptor (Rattus norvegicus, UniProt P56718); assay: Rat orexin 1 receptor radioligand binding (competitive); details: HEK293 cells stably expressing rat orexin 1 receptor; 4 nM radioligand; averages of 2-20 runs; read-out: rOX1 Ki
Method in brief: as §1

Row | SMILES | Ki (human orexin 2 receptor) [nM] | Ki (human orexin 1 receptor) [nM] | Ki (rat orexin 1 receptor) [nM]
1 | C[C@@H]1[C@H]2C[C@@H](Oc3ccc(C(F)(F)F)cn3)[C@H](C2)N1C(=O)c1ccc(F)cc1-n1nccn1 (relative stereo) [Example 28, (4-fluoro-2-(2H-1,2,3-triazol-2-yl)phenyl)((1S*,3R*,4R*,6R*)-3-methyl-6-((5-(trifluoromethyl)pyridin-2-yl)oxy)-2-azabicyclo[2.2.1]heptan-2-yl)methanone] | 1300 | – | –
2 | CC1C2CC(Oc3cnc(C(F)(F)F)cn3)C(C2)N1C(=O)c1ccccc1-n1nccn1 (racemic) [Example 43, (R/S)-(2-(2H-1,2,3-triazol-2-yl)phenyl)(3-methyl-6-((5-(trifluoromethyl)pyrazin-2-yl)oxy)-2-azabicyclo[2.2.1]heptan-2-yl)methanone] | 5700 | 13 | –
3 | C[C@@H]1[C@H]2C[C@@H](Oc3cnc(C(F)(F)F)cn3)[C@H](C2)N1C(=O)c1ccccc1-n1nccn1 (relative stereo) [Example 51, (2-(2H-1,2,3-triazol-2-yl)phenyl)((1S*,3R*,4R*,6R*)-3-methyl-6-((5-(trifluoromethyl)pyrazin-2-yl)oxy)-2-azabicyclo[2.2.1]heptan-2-yl)methanone] | 2140 | 24 | –
4 | CC(C)CC1C2CC(Oc3ccc(C(F)(F)F)cn3)C(C2)N1C(=O)c1ccccc1-n1nccn1 (racemic) [Example 207, (R/S)-[2-isobutyl-5-[[5-(trifluoromethyl)-2-pyridyl]oxy]-3-azabicyclo[2.2.1]heptan-3-yl]-[2-(triazol-2-yl)phenyl]methanone] | 3900 | – | –
5 | Cc1cnc(C(=O)N2[C@H](C)[C@H]3C[C@@H](Oc4ccc(C(F)(F)F)cn4)[C@@H]2C3)c(-c2ncccn2)c1 (relative stereo) [Example 35, (5-methyl-3-(pyrimidin-2-yl)pyridin-2-yl)((1S*,3R*,4R*,6R*)-3-methyl-6-((5-(trifluoromethyl)pyridin-2-yl)oxy)-2-azabicyclo[2.2.1]heptan-2-yl)methanone] | 4100 | – | –
6 | C[C@@H]1[C@H]2C[C@@H](Oc3cnc(C(F)(F)F)cn3)[C@H](C2)N1C(=O)c1c(F)cccc1-n1nccn1 (relative stereo) [Example 55, (2-fluoro-6-(2H-1,2,3-triazol-2-yl)phenyl)((1S*,3R*,4R*,6R*)-3-methyl-6-((5-(trifluoromethyl)pyrazin-2-yl)oxy)-2-azabicyclo[2.2.1]heptan-2-yl)methanone] | 3200 | 20 | –
7 | C[C@@H]1[C@H]2C[C@@H](Oc3cnc4ccccc4n3)[C@H](C2)N1C(=O)c1cccc(F)c1-n1nccn1 (relative stereo) [Example 184, (3-fluoro-2-(2H-1,2,3-triazol-2-yl)phenyl)((1S*,3R*,4R*,6R*)-3-methyl-6-(quinoxalin-2-yloxy)-2-azabicyclo[2.2.1]heptan-2-yl)methanone] | 208 | – | –
8 | Cc1ccc(C(=O)N2[C@H](C)[C@H]3C[C@@H](Oc4cnc(C(F)(F)F)cn4)[C@@H]2C3)c(-n2nccn2)n1 (relative stereo) [Example 49, (6-methyl-2-(2H-1,2,3-triazol-2-yl)pyridin-3-yl)((1S*,3R*,4R*,6R*)-3-methyl-6-((5-(trifluoromethyl)pyrazin-2-yl)oxy)-2-azabicyclo[2.2.1]heptan-2-yl)methanone] | – | 25 | 26
9 | C[C@@H]1[C@H]2C[C@@H](Oc3ccc(C(F)(F)F)cn3)[C@H](C2)N1C(=O)c1ccccc1-c1ncccn1 (relative stereo) [Example 33, ((1S*,3R*,4R*,6R*)-3-methyl-6-((5-(trifluoromethyl)pyridin-2-yl)oxy)-2-azabicyclo[2.2.1]heptan-2-yl)(2-(pyrimidin-2-yl)phenyl)methanone] | – | 3 | 4

Results, then the molecule that gave them:

Row | Ki (human orexin 2 receptor) [nM] | Ki (human orexin 1 receptor) [nM] | Ki (rat orexin 1 receptor) [nM] | SMILES
10 | 2300 | – | – | COc1ccc(C(=O)N2[C@H](C)[C@H]3C[C@@H](Oc4ccc(C(F)(F)F)cn4)[C@@H]2C3)c(-n2nccn2)c1 (relative stereo) [Example 31, (4-methoxy-2-(2H-1,2,3-triazol-2-yl)phenyl)((1S*,3R*,4R*,6R*)-3-methyl-6-((5-(trifluoromethyl)pyridin-2-yl)oxy)-2-azabicyclo[2.2.1]heptan-2-yl)methanone]
11 | 4300 | 6 | 6 | Cc1cnc(-n2nccn2)c(C(=O)N2[C@H](C)[C@H]3C[C@@H](Oc4ccc(C(F)(F)F)cn4)[C@@H]2C3)c1 (relative stereo) [Example 26, (5-methyl-2-(2H-1,2,3-triazol-2-yl)pyridin-3-yl)((1S*,3R*,4R*,6R*)-3-methyl-6-((5-(trifluoromethyl)pyridin-2-yl)oxy)-2-azabicyclo[2.2.1]heptan-2-yl)methanone]
12 | 208 | – | – | CCC1C2CC(Oc3ccc(C(F)(F)F)cn3)C(C2)N1C(=O)c1ccccc1-n1nccn1 (racemic) [Example 213, (R/S)-[2-ethyl-5-[[5-(trifluoromethyl)-2-pyridyl]oxy]-3-azabicyclo[2.2.1]heptan-3-yl]-[2-(triazol-2-yl)phenyl]methanone]
13 | 567 | – | – | CC1C2CC(Nc3cnc(C(F)(F)F)cn3)C(C2)N1C(=O)c1cccc(F)c1-c1ncccn1 (single isomer, unassigned) [Example 67, (R/S)-(3-fluoro-2-(pyrimidin-2-yl)phenyl)(3-methyl-6-((5-(trifluoromethyl)pyrazin-2-yl)amino)-2-azabicyclo[2.2.1]heptan-2-yl)methanone]
14 | 1100 | – | – | CC1C2CC(Oc3ccc(C(F)(F)F)cn3)C(C2)N1C(=O)c1cccc(F)c1-c1ncco1 (racemic) [Example 12, (R/S)-(3-fluoro-2-(oxazol-2-yl)phenyl)(3-methyl-6-((5-(trifluoromethyl)pyridin-2-yl)oxy)-2-azabicyclo[2.2.1]heptan-2-yl)methanone]
15 | 637 | – | – | CC1C2CC(Nc3cnc(C(F)(F)F)cn3)C(C2)N1C(=O)c1cccc(F)c1-c1ncccn1 (single isomer, unassigned) [Example 4, (R/S)-(3-fluoro-2-(pyrimidin-2-yl)phenyl)(3-methyl-6-((5-(trifluoromethyl)pyrazin-2-yl)amino)-2-azabicyclo[2.2.1]heptan-2-yl)methanone]
16 | 7700 | – | – | Cc1ccc(-c2ncccn2)c(C(=O)N2C(C)C3CC(Oc4cnc(C(F)(F)F)cn4)C2C3)n1 (racemic) [Example 44, (R/S)-(6-methyl-3-(pyrimidin-2-yl)pyridin-2-yl)(3-methyl-6-((5-(trifluoromethyl)pyrazin-2-yl)oxy)-2-azabicyclo[2.2.1]heptan-2-yl)methanone]
17 | 6900 | 18 | – | CC1C2CC(Oc3cnc(C(F)(F)F)cn3)C(C2)N1C(=O)c1ccccc1-c1ncccn1 (racemic) [Example 45]
18 | – | 14 | 11 | Cc1ccc(-n2nccn2)c(C(=O)N2C(C)C3CC(Oc4ccc(C(F)(F)F)cn4)C2C3)n1 (single isomer, unassigned) [Example 3A, (6-methyl-3-(2H-1,2,3-triazol-2-yl)pyridin-2-yl)((1R*,3R*,4S*,6S*)-3-methyl-6-((5-(trifluoromethyl)pyridin-2-yl)oxy)-2-azabicyclo[2.2.1]heptan-2-yl)methanone]

Source: patent US9611262B2, “Substituted 2-azabicycles and their use as orexin receptor modulators” (JANSSEN PHARMACEUTICA NV, priority 2014, dated 2017)
